Measurements from paper PMC9631991 (Biochemistry, 2022).
Blank lines part the entries; values can stand above or below the binder they belong to.

Tests used:
[1] = biological target: LC3B-115 (residues 1-115) (human, UniProt Q9GZQ8 1-115); test: ITC; 25 °C; 20 mM HEPES pH 7.5, 200 mM NaCl, 0.5 mM TCEP; 10~68 uM LC3B proteins in the cell, 10-fold higher concentration of ATG4b in the syringe; single-site binding model; settings: both partners purified
[2] = biological target: pro-LC3B (residues 1-125) (human, UniProt Q9GZQ8 1-120); test: cell-based or functional assay

Kd [1]: 143 nM
B1: ATG4b WT (full-length ATG4b) (enzyme)
chain: MDAATLTYDTLRFAEFEDFPETSEPVWILGRKYSIFTEKDEILSDVASRLWFTYRKNFPAIGGTGPTSDTGWGCMLRCGQMIFAQALVCRHLGRDWRWTQRKRQPDSYFSVLNAFIDRKDSYYSIHQIAQMGVGEGKSIGQWYGPNTVAQVLKKLAVFDTWSSLAVHIAMDNTVVMEEIRRLCRTSVPCAGATAFPADSDRHCNGFPAGAEVTNRPSPWRPLVLLIPLRLGLTDINEAYVETLKHCFMMPQSLGVIGGKPNSAHYFIGYVGEELIYLDPHTTQPAVEPTDGCFIPDESFHCQHPPCRMSIAELDPSIAVGFFCKTEDDFNDWCQQVKKLSLLGGALPMFELVELQPSHLACPDVLNLSLDSSDVERLERFFDSEDEDFEILSL

fold decrease in KM of cleavage of the FRET substrate CFP-proLC3B-YFP, fold against ATG4b WT [2]: 2.8 fold
B2: ATG4b-382 (domain or fragment)
chain: MDAATLTYDTLRFAEFEDFPETSEPVWILGRKYSIFTEKDEILSDVASRLWFTYRKNFPAIGGTGPTSDTGWGCMLRCGQMIFAQALVCRHLGRDWRWTQRKRQPDSYFSVLNAFIDRKDSYYSIHQIAQMGVGEGKSIGQWYGPNTVAQVLKKLAVFDTWSSLAVHIAMDNTVVMEEIRRLCRTSVPCAGATAFPADSDRHCNGFPAGAEVTNRPSPWRPLVLLIPLRLGLTDINEAYVETLKHCFMMPQSLGVIGGKPNSAHYFIGYVGEELIYLDPHTTQPAVEPTDGCFIPDESFHCQHPPCRMSIAELDPSIAVGFFCKTEDDFNDWCQQVKKLSLLGGALPMFELVELQPSHLACPDVLNLSLDSSDVERLERFFD
